From PubChem BioAssay AID375 (SRMLSC, 2006) come the findings set out here.

Amino acid sequences for entries named in this document (tags omitted).
UniProt P9WIL5, whole entry: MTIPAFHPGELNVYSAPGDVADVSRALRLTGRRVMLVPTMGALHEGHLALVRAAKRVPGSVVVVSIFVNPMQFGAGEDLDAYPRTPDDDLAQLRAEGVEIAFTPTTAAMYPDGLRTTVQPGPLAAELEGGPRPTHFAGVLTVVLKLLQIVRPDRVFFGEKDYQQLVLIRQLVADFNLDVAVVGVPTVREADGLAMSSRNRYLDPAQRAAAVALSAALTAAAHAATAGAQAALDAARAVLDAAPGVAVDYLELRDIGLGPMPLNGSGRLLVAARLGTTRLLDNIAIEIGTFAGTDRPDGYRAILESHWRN

Each structure is given as a SMILES string. Only a part is listed here, and it is no random draw. Some of these compounds have results that are not shown, active ones among them. The source made the active and inactive calls. The rule behind the calls is not given here.

The term inhibition denotes the relative decrease from the control value, in per cent.

In this test the target is Pantothenate synthetase (Mycobacterium tuberculosis (strain ATCC 25618 / H37Rv)) (UniProt P9WIL5). As to the kind of experiment: Recombinant Mtb pantothenate synthetase (PanC) inhibitors, coupled enzyme, confirmatory (AID 375).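 Note: 0% = full reaction with vehicle and 100% = no enzyme background.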 To be noted: coupled enzyme assay, at 10 µM, active compounds read high.
On to `O=C(OC1CN2CCC1CC2)C(CO)(c1ccccc1)c1ccccc1` (stereo unspecified), for which the inhibition was inactive: 5%.
